Experimental data as given in patent US10626094B2 (La Jolla Institute of Allergy & Immunology, priority 2014, dated 2020).

Amino acid sequences for entries named in this document (tags omitted).
UniProt P24666, whole entry: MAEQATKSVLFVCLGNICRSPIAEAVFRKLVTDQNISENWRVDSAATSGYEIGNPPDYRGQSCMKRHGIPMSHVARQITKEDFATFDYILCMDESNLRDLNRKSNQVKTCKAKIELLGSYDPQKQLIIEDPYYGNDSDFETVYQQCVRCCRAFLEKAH

Target: LMPTP-A (Low Molecular Weight Protein Tyrosine Phosphatase-A) enzyme (Homo sapiens (Human), UniProt P24666)
Experiment: LMPTP primary screening / LMPTP (OMFP) enzyme inhibition assay, fluorescence intensity
Format: biochemical
Details: for LMPTP (OMFP) potency in words: SAR discussion
[1] = read-out: LMPTP (OMFP) (IC50), Table 1 quinazolinone series, P sample (purchased from commercial sources)
[2] = read-out: LMPTP (OMFP) (IC50), Table 1 quinazolinone series, CP sample (cherry pick of DMSO solution from NIH MLSMR)

SMILES | IC50 [1] [µM] | other results
Clc1ccccc1-c1cc(NCCCN2CCCCC2)c2ccccc2n1 |  | IC50 (read-out: LMPTP (OMFP) IC50): 11.2 µM
c1ccc(-c2nc(NCCCn3ccnc3)c3ccccc3n2)cc1 | 17.8 | 
O=C(O)c1ccccc1Nc1nc(-c2ccc([N+](=O)[O-])cc2)nc2ccccc12 |  | IC50 [2]: > 80 µM
c1ccc(-c2cc(N3CCCCC3)c3ccccc3n2)cc1 |  | LMPTP (OMFP) potency in words: less than the screening hit; IC50 (read-out: LMPTP (OMFP) (IC50), Table 2 quinoline series, P sample (purchased from commercial sources)): 11.1 µM
O=C(OCCNc1nc(-c2ccccc2)nc2ccccc12)c1cccnc1 | 24.2 | 
Cc1ccc(-c2nc(NCCN3CCOCC3)c3ccccc3n2)cc1 | 18.8 | 
Fc1ccccc1-c1nc(NCCCN2CCOCC2)c2ccccc2n1 |  | IC50 [2]: 22 µM
CC(C)OCCCNc1nc(-c2ccccc2)nc2ccccc12 | 18.1 | 
OCC(Nc1nc(-c2ccccc2)nc2ccccc12)c1ccccc1 (centres unmarked) |  | IC50 [2]: 17 µM
Cc1ccc(-c2nc(NCc3cccnc3)c3ccccc3n2)cc1 | 12.9 | 
O=C(OCCNc1nc(-c2ccccc2)nc2ccccc12)c1ccncc1 | 20.9 | 
c1ccc(-c2nc(NCc3cccnc3)c3ccccc3n2)cc1 | 19 | 
c1ccc(-c2cc(OCCCN3CCCCC3)c3ccccc3n2)cc1 |  | LMPTP (OMFP) potency in words: inactive

Where two headings read alike, the source gives them in different places.
